The values that follow come from patent US20180177872A1, “Combination of PD-1 antagonist with an EGFR inhibitor” (priority 2015, published 2018).

The chains behind the UniProt entries cited, without tags or fusion partners.
UniProt Q08881, whole entry, species assumed: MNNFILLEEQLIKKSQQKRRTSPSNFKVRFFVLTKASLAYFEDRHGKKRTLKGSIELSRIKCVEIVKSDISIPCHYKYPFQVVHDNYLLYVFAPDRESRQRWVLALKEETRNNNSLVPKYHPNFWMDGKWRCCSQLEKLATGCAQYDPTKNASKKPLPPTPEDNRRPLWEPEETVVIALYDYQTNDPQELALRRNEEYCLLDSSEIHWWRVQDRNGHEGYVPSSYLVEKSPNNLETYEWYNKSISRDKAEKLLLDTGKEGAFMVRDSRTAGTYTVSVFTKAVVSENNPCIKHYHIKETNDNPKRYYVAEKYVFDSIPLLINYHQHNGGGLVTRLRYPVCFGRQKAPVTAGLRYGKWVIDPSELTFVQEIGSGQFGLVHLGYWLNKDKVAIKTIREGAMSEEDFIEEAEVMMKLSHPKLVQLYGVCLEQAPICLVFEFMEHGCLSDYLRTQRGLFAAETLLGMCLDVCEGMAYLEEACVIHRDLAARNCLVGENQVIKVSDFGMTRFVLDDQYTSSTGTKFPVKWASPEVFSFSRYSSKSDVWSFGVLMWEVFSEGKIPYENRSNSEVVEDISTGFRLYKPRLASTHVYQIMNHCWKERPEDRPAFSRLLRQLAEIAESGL

One may read the IC50 as the concentration at which inhibition is half-maximal. Lower therefore signals greater potency in that assay.

In assay [1] the target is T1, ITK (Homo sapiens, UniProt Q08881). The assay is described as follows: biochemical.
For assay [2], the target named is T1, ITK. Particulars: Biochemical.

Take `Cc1cc(C(=O)Nc2nc3cccc(Cl)c3n2[C@@H]2CCCCN(C(=O)/C=C/CN(C)C)C2)ccn1` [Compound A, (R,E)-N-(7-chloro-1-(1-(4-(dimethylamino)but-2-enoyl)azepan-3-yl)-1Hbenzo[d]imidazol-2-yl)-2-methylisonicotinamide]: half-maximal inhibition in assay [1] (IC50) was put at 1.3 nM. Besides, the “IC50, ITK” value in assay [2] is “single digit nM”.
